This note sets out measurements from patent US6723724B2, “Isoxazolylalkylpiperazine derivatives having selective biological activity at dopamine D3 or D4 receptor, and preparation thereof” (priority 2000, dated 2004).

Amino acid sequences for entries named in this document (tags omitted).
UniProt P14416, whole entry: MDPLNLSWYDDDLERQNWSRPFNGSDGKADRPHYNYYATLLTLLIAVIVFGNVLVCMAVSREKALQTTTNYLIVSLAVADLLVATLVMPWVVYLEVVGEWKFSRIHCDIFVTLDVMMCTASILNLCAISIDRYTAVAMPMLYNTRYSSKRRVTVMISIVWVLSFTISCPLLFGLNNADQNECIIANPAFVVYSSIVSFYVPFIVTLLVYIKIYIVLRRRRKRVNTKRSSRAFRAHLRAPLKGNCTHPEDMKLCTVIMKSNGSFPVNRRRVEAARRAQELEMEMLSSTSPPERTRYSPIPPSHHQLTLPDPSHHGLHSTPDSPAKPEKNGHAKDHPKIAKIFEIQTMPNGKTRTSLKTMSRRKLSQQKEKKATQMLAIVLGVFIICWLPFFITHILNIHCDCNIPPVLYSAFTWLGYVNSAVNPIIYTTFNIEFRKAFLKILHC
UniProt P21917, whole entry: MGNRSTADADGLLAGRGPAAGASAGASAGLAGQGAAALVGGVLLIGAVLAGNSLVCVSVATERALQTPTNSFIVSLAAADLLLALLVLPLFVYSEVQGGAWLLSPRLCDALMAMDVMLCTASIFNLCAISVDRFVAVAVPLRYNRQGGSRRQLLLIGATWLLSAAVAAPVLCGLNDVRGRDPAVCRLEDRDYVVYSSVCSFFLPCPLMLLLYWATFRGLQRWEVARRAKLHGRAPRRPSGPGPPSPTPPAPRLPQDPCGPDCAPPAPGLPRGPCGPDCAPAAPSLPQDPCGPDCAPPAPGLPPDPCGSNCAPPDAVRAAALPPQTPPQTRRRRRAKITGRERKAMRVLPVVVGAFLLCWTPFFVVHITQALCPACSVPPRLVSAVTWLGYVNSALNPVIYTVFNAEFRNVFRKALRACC
UniProt P35462, whole entry: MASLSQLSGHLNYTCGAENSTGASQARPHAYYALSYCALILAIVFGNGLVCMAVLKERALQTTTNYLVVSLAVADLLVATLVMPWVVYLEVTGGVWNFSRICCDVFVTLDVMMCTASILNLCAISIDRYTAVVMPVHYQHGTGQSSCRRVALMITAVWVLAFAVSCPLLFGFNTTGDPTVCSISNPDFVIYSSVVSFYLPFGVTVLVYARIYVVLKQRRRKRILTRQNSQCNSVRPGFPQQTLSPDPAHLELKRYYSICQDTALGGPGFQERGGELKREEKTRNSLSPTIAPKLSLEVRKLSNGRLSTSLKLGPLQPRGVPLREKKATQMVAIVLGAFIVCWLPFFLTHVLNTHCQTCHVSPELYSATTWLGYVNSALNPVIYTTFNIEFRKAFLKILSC
UniProt P21728, whole entry: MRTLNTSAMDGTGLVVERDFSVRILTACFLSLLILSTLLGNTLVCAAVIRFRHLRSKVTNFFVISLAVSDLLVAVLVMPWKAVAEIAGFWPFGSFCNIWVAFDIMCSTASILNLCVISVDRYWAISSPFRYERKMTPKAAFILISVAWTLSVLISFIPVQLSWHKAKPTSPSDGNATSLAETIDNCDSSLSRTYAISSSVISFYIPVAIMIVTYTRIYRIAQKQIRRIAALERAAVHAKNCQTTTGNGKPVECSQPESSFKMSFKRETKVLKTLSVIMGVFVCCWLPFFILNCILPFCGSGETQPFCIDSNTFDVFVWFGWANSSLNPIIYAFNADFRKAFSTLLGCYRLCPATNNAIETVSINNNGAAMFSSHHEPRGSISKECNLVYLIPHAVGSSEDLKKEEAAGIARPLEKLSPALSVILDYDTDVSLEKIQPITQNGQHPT

The target in one assay is dopamine D2 receptor (Homo sapiens, UniProt P14416). The experiment in a line: Binding affinity to cloned human dopamine receptors (radioligand displacement), D2. On the technique in general: Loss of bound radioactivity is the signal in a displacement assay; it reports binding, not function.
For another assay, the target named is dopamine D4 receptor (Homo sapiens, UniProt P21917). The experiment in a line: Binding affinity to cloned human dopamine receptors (radioligand displacement), D4.
The target of the next assay is dopamine D3 receptor (Homo sapiens, UniProt P35462). Kind of assay: Binding affinity to cloned human dopamine receptors (radioligand displacement), D3.
For the next assay, the target named is dopamine D1 receptor (Homo sapiens, UniProt P21728). Kind of assay: Binding affinity to cloned human dopamine receptors (radioligand displacement), D1.

Molecules are shown by their SMILES.

Broadly, the IC50 is the concentration at which inhibition is half-maximal. Turning to `c1ccc(-c2cc(CCCCN3CCN(c4ccccc4)CC3)on2)cc1`, at dopamine D2 receptor (1 µM test compound), the “Affinity to Dopamine Receptors (% Inhibition) D2” value is listed as 49.3%. Moreover, the IC50 on dopamine D2 receptor (read-out: IC50 for Dopamine Receptors D2) was found to be 15300 nM; at dopamine D4 receptor (read-out: IC50 for Dopamine Receptors D4), 832 nM; at dopamine D3 receptor (read-out: IC50 for Dopamine Receptors D3), 41 nM; on dopamine D1 receptor (read-out: IC50 for Dopamine Receptors D1), 320 nM. For the same molecule, the “Affinity to Dopamine Receptors (% Inhibition) D4” value on dopamine D4 receptor (1 µM test compound) amounted to 21.6%. Also, the “Affinity to Dopamine Receptors (% Inhibition) D3” value on dopamine D3 receptor (1 µM test compound) worked out at 110.4%. For the same molecule, the “Affinity to Dopamine Receptors (% Inhibition) D1” value on dopamine D1 receptor (1 µM test compound) was 58.9%.
